# From article PMC3977474, “Cerebrovascular and Neuroprotective Effects of Adamantane Derivative” (BioMed Research International, 2014)
# Protein sequences, listed by entry. Tags and fused reporters are not part of them. Residues count along the entry.
# UniProt Q00959, 23-1464: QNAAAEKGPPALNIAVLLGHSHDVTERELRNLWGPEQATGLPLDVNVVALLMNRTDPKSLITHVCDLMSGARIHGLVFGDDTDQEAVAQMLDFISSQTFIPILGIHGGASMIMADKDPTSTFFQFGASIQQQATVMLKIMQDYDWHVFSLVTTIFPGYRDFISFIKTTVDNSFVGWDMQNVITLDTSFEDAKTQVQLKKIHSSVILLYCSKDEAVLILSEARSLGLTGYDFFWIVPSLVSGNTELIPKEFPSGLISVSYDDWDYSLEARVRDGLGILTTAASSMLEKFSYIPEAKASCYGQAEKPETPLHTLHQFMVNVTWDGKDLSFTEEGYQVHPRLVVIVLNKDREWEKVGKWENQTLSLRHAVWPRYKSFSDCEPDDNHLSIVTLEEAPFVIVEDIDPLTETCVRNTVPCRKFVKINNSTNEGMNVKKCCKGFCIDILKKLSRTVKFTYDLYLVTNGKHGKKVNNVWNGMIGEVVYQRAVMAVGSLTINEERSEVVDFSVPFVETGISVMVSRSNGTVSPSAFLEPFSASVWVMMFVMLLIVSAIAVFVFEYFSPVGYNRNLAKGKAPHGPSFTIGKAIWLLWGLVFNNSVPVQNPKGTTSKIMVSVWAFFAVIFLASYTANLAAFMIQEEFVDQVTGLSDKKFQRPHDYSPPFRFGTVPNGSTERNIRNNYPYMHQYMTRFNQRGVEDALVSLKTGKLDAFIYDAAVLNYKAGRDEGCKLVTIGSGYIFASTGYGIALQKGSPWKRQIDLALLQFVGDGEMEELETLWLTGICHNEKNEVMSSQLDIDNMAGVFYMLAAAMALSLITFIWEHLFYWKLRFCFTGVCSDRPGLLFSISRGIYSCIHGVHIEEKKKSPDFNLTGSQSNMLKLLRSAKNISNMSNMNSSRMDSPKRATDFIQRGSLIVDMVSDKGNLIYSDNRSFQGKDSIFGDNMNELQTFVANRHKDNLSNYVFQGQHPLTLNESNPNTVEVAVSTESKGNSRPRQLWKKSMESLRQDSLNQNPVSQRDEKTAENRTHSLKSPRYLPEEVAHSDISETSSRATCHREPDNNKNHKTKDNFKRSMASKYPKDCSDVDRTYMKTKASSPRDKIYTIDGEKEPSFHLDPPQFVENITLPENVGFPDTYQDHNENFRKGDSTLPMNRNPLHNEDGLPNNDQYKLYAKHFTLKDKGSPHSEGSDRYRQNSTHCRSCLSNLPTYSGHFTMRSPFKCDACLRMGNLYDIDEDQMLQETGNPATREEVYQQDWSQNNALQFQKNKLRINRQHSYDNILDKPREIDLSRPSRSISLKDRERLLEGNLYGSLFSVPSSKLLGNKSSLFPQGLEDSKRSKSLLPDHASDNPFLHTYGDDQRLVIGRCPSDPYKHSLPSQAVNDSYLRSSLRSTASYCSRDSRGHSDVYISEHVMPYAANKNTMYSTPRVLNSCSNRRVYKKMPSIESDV
# UniProt Q00960, 27-1482: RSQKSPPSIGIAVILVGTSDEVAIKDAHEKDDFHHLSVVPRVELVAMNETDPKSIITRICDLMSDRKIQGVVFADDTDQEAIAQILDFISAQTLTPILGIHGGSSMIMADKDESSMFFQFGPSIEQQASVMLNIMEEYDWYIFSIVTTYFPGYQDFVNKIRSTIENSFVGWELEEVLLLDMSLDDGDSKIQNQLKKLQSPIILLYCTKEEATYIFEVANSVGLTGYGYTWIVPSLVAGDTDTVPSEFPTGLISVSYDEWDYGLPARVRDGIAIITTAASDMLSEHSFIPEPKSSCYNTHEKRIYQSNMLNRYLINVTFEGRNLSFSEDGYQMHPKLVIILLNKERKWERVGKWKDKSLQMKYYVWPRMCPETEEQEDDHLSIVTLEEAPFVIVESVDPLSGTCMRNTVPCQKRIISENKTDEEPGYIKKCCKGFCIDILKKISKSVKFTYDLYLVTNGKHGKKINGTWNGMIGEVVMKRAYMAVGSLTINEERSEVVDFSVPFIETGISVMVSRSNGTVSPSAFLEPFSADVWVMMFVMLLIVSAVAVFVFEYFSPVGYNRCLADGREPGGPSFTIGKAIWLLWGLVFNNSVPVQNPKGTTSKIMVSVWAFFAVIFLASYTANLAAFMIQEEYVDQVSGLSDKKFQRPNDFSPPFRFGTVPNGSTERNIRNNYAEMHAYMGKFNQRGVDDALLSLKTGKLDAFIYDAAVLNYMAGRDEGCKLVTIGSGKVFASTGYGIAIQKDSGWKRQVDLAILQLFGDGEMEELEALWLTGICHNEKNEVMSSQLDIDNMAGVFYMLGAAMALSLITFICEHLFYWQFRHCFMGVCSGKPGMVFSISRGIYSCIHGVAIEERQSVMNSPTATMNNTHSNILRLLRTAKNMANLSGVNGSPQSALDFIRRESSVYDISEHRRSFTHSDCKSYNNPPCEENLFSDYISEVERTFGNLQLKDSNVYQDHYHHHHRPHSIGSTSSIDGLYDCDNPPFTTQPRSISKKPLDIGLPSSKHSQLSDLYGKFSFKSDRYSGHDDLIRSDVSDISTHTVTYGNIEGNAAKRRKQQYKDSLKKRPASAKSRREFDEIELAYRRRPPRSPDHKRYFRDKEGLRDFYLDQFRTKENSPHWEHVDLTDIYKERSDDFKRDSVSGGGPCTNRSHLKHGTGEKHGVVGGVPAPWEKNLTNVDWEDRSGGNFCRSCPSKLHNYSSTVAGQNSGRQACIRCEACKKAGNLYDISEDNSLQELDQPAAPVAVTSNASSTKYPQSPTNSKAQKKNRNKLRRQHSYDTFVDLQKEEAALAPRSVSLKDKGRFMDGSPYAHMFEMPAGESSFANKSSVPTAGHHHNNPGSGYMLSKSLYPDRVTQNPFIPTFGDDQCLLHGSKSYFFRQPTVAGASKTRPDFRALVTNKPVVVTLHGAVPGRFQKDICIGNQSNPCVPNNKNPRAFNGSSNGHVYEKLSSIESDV
# Target: T1, NMDA receptor (Rattus norvegicus, UniProt P35439+Q00959+Q00960)
# T1 construct: gene Grin1; native receptor in rat hippocampal membranes
# Test: [3H]-MK-801 radioligand displacement, rat hippocampal membranes
# Type: binding
smiles,measurement,value
CC12CC3CC(C)(C1)CC(N)(C3)C2 [memantine],IC50,1.14 µM
